## Measured affinities in a library of Ab-14 heavy chain variants

All variants were tested on one target, the spike HR2 peptide PDVDLGDISGINAS (SARS-CoV-2).

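Variants in AAYL49 differ from the parent at up to three CDR positions; double and triple changes were sampled at random. AlphaSeq pools MATa yeast showing the antibodies with MATalpha yeast showing the peptide. Pairs that bind mate more often; barcode pairs of the diploids are counted by sequencing. The ratio of observed to expected reads was calibrated, replicate by replicate, on BCL2-family standards whose Kd was known from biolayer interferometry. Mating was done three times.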

Each scFv is VH, the linker GGGGSGGGGSGGGGS, VL, as in the parent Ab-14, and differs from it in the CDRs of the heavy chain only.
VH: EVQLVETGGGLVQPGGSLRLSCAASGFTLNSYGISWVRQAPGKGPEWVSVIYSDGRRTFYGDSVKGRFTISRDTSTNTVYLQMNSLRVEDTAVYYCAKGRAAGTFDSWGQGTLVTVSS
VL: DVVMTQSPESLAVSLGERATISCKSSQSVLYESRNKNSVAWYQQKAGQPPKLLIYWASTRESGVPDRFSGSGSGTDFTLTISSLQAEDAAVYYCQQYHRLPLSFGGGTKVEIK

Each variant is given by its three heavy chain CDRs, as the data file delimits them; those of the parent are GFTLNSYGIS, VIYSDGRRTFYGDSVK, GRAAGTFDS.
This list gathers variants with a substitution at S35 (VH, numbered from residue 1).
Each Kd is an estimate from the mating assay, the geometric mean of the replicates in which the pair was seen; lower is stronger.
Where no diploid with the target was found in any replicate, the entry reads "nd": below detection, most likely a poor binder, though not proof of it.
Background: pairings of library AAYL49 with three empty control strains gave a value in 15% of cases (median 11 µM, 5th percentile 680 nM). Values in that range, when seen in few replicates, are hard to tell from nonspecific mating. Also given: how often the same scFv was detected with the empty control strains.

Variant GFTLNSYGIQ / VIYSDGRRPFYGDSVK / GRAAGYFDS gave 81 µM (1 of 3 replicates; controls 1 of 9).
Variant GFPLNSYGIQ / VIYSDGRRTFYGDSVK / ERAAGTFDS gave 1.0 µM (1 of 3 replicates; controls 0 of 9).
Variant GFTLNSYGID / VIYSDGRRTFYGDSVQ / GRAAGTFDH gave nd (0 of 3 replicates; controls 1 of 9).
Variant GFTLNSYGIH / VIYSDYRRTFYGDSVK / PRAAGTFDS gave nd (0 of 3 replicates; controls 0 of 9).
Variant VFTLNSYGIA / VIYSDGRRTFYGDSYK / GRAAGTFDS gave 2.0 µM (1 of 3 replicates; controls 3 of 9).
Variant WFTLNSYGIG / VIYSDGRRTFGGDSVK / GRAAGTFDS gave nd (0 of 3 replicates; controls 0 of 9).
Variant GFTLNSYGIH / VIYSDGRYTFYGDQVK / GRAAGTFDS gave nd (0 of 3 replicates; controls 0 of 9).
Variant LFTLNSYGIW / VIYSDGRRTMYGDSVK / GRAAGTFDS gave 100 nM (1 of 3 replicates; controls 1 of 9).
Variant GFTLNSYGIL / VIYSDERRTFAGDSVK / GRAAGTFDS gave nd (0 of 3 replicates; controls 1 of 9).
Variant AFTLNSYGIP / VIYSDGRRTFYGDSVK / GRAAFTFDS gave 43 µM (2 of 3 replicates; controls 1 of 9).
Variant GFTLNSYIIQ / VIYSDGMRTFYGDSVK / GRAAGTFDS gave nd (0 of 3 replicates; controls 1 of 9).
Variant GFTLNSYGIY / VIYSVGRRDFYGDSVK / GRAAGTFDS gave nd (0 of 3 replicates; controls 0 of 9).
Variant GFTLSSYGIF / VIDSDGRRTFYGDSVK / GRAAGTFDS gave nd (0 of 3 replicates; controls 0 of 9).
Variant GFTLISYGIH / VIYSDGRRTFYGDSVK / GRAAGTFDS gave 450 nM (3 of 3 replicates; controls 2 of 9).
Variant GVTLNSYGIN / VIYSDGRRTMYGDSVK / GRAAGTFDS gave 36 µM (1 of 3 replicates; controls 0 of 9).
Variant GFTLNSYGIL / VIYSDGRRWFFGDSVK / GRAAGTFDS gave 360 nM (1 of 3 replicates; controls 0 of 9).
Variant YFTLNSYGIH / VIPSDGRRTFYGDSVK / GRAAGTFDS gave 4.0 µM (1 of 3 replicates; controls 1 of 9).
Variant GFTLNSYGID / VIYSDGRRTFYGDSVK / GRAAGTMDS gave nd (0 of 3 replicates; controls 1 of 9).
Variant GFTLNSYGID / VIYSDGRRTFYGDSVK / GDAAGTFDS gave nd (0 of 3 replicates; controls 0 of 9).
Variant GFTLNSYGIH / VIYSDGRRTFYGDSVK / GRAQGTFDH gave 56 µM (1 of 3 replicates; controls 0 of 9).
Variant GFTLNSYGIK / VIYNDGRRTFYGDSVK / GEAAGTFDS gave 490 µM (3 of 3 replicates; controls 1 of 9).
Variant GFTLNSYGID / VIYSDGLRHFYGDSVK / GRAAGTFDS gave nd (0 of 3 replicates; controls 2 of 9).
Variant GFTLNSYGIN / VIYSDGFRTFYGDSVK / GRAAGTFTS gave 300 nM (1 of 3 replicates; controls 1 of 9).
Variant GFTLNSIGIP / VIYSDGRRTFYHDSVK / GRAAGTFDS gave 70 µM (1 of 3 replicates; controls 0 of 9).
Variant GFTLNSYGIY / VIYSVGRRTFYGDFVK / GRAAGTFDS gave nd (0 of 3 replicates; controls 1 of 9).
Variant GFTLNSYGIW / VIYSAGRWTFYGDSVK / GRAAGTFDS gave 26 µM (2 of 3 replicates; controls 2 of 9).
Variant GFTLNSYGIN / VIYSDGRRTFYVDSVK / GRAAGFFDS gave 480 nM (1 of 3 replicates; controls 1 of 9).
Variant GFTLNSYGIC / VRYSDGSRTFYGDSVK / GRAAGTFDS gave 18 µM (1 of 3 replicates; controls 1 of 9).
Variant GFTLNSYGIE / VIYSDGRRTFYGCSVK / QRAAGTFDS gave 35 µM (3 of 3 replicates; controls 6 of 9).
Variant GFTLNSEGIA / VIYSDGRRTFYGRSVK / GRAAGTFDS gave 11 µM (2 of 3 replicates; controls 1 of 9).
Variant GFTLQSYGIF / VIYSDGRRTFYGDSVK / GRAAGTFDW gave nd (0 of 3 replicates; controls 5 of 9).

Picked from the list: the 3 lowest averages where every replicate gave a value.

{"CDR-H1": "GFTLISYGIH", "CDR-H2": "VIYSDGRRTFYGDSVK", "CDR-H3": "GRAAGTFDS", "apparent Kd": "450 nM", "seen in": "3 of 3", "control signals": "2 of 9"}
{"CDR-H1": "GFTLNSYGIE", "CDR-H2": "VIYSDGRRTFYGCSVK", "CDR-H3": "QRAAGTFDS", "apparent Kd": "35 µM", "seen in": "3 of 3", "control signals": "6 of 9"}
{"CDR-H1": "GFTLNSYGIK", "CDR-H2": "VIYNDGRRTFYGDSVK", "CDR-H3": "GEAAGTFDS", "apparent Kd": "490 µM", "seen in": "3 of 3", "control signals": "1 of 9"}

Values reported by Engelhart et al. 2022, doi:10.1038/s41597-022-01779-4 (FLAb copy).